# Binding of CDR-mutated scFvs to a peptide of the spike HR2 region

Target peptide (SARS-CoV-2 spike, HR2 region): PDVDLGDISGINAS

The variants keep the heavy chain, the linker and the frameworks of Ab-95 (scFv order VH, the linker GGGGSGGGGSGGGGS, VL).
VH: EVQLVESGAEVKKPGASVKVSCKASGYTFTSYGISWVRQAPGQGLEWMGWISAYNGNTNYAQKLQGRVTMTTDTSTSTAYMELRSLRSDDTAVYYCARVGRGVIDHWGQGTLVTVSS
VL: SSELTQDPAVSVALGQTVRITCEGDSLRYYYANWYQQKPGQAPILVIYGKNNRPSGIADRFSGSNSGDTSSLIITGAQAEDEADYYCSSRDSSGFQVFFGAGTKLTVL

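The parent was found by panning a naive human phage display library on the peptide. The library (AAYL52) carries one to three amino acid substitutions per variant, with no insertions or deletions. Affinity was read by AlphaSeq, a pooled yeast mating assay with surface-displayed partners. After mating in shaken culture at 30 °C for 16 h, diploids were selected and their barcode pairs sequenced. A regression on co-assayed BCL2-family reference pairs converts the normalised counts of each replicate to an apparent Kd. Each pool was mated in three replicate cultures.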

Changes read parent residue, position, new residue, counted from the first residue of the VL shown.
Scale: log10 of Kd in nM, estimated from mating counts; low values are strong binders.
Replicates are averaged; those with no signal do not enter the mean.
"not detected" marks a missing value. The strain was present, yet no cells mated with the target were sequenced in any replicate, which points to weak or no binding.

{"changes": "Y31R D91I F95D", "mean log10 Kd (nM)": "not detected", "replicates with signal": "0 of 3", "control signals": "1 of 9"}
{"changes": "Y29K R53A S93L", "mean log10 Kd (nM)": "not detected", "replicates with signal": "0 of 3", "control signals": "3 of 9"}
{"changes": "S89H S92R F95R", "mean log10 Kd (nM)": "3.75", "replicates with signal": "1 of 3", "control signals": "4 of 9"}
{"changes": "S26W L27F Y29I", "mean log10 Kd (nM)": "4.63", "replicates with signal": "1 of 3", "control signals": "3 of 9"}
{"changes": "R28T A32F R53V", "mean log10 Kd (nM)": "4.61", "replicates with signal": "1 of 3", "control signals": "2 of 9"}
{"changes": "R28S F98K", "mean log10 Kd (nM)": "2.82", "replicates with signal": "3 of 3", "control signals": "4 of 9"}
{"changes": "G24P Y29C N33Y", "mean log10 Kd (nM)": "4.11", "replicates with signal": "2 of 3", "control signals": "5 of 9"}
{"changes": "N52V S88V S92N", "mean log10 Kd (nM)": "2.41", "replicates with signal": "2 of 3", "control signals": "1 of 9"}
{"changes": "S26D F95K V97A", "mean log10 Kd (nM)": "3.87", "replicates with signal": "3 of 3", "control signals": "4 of 9"}
{"changes": "A32K G49S S92D", "mean log10 Kd (nM)": "3.92", "replicates with signal": "1 of 3", "control signals": "2 of 9"}
{"changes": "Y31G S88P", "mean log10 Kd (nM)": "not detected", "replicates with signal": "0 of 3", "control signals": "1 of 9"}
{"changes": "Y31S R53T S55K", "mean log10 Kd (nM)": "2.16", "replicates with signal": "3 of 3", "control signals": "2 of 9"}
{"changes": "P54Y Q96H", "mean log10 Kd (nM)": "2.79", "replicates with signal": "2 of 3", "control signals": "0 of 9"}
{"changes": "S92R S93H F95L", "mean log10 Kd (nM)": "3.02", "replicates with signal": "3 of 3", "control signals": "2 of 9"}
{"changes": "Y30M G94C F95R", "mean log10 Kd (nM)": "2.39", "replicates with signal": "3 of 3", "control signals": "3 of 9"}
{"changes": "N52K R90C Q96C", "mean log10 Kd (nM)": "3.52", "replicates with signal": "3 of 3", "control signals": "5 of 9"}
{"changes": "N51Y S88I V97C", "mean log10 Kd (nM)": "2.89", "replicates with signal": "3 of 3", "control signals": "4 of 9"}
{"changes": "Y31R D91H", "mean log10 Kd (nM)": "3.03", "replicates with signal": "3 of 3", "control signals": "4 of 9"}

The opening 2 entries, copied out:

changes	mean log10 Kd (nM)	replicates with signal	control signals
Y31R D91I F95D	not detected	0 of 3	1 of 9
Y29K R53A S93L	not detected	0 of 3	3 of 9

Background: pairings of library AAYL52 with three empty control strains gave a value in 28% of cases (median 3.91, 5th percentile 2.90). Values in that range, when seen in few replicates, are hard to tell from nonspecific mating. Also given: how often the same scFv was detected with the empty control strains.

Values reported by Engelhart et al. 2022, doi:10.1038/s41597-022-01779-4 (FLAb copy).